Chains of the proteins cited; added tags and fusions are not shown. Lines headed by an entry give the natural chain unless they say otherwise; changes in a name come on top. Residues count along the entry.
UniProt P43166: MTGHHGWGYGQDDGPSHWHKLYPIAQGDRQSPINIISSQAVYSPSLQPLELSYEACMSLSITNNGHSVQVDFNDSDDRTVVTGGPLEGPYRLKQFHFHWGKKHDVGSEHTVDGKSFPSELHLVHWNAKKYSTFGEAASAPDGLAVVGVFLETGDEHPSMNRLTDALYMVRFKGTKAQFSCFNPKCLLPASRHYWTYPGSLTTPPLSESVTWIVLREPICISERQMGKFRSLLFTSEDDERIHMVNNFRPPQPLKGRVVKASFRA
UniProt P35218, 39-305 limits assumed: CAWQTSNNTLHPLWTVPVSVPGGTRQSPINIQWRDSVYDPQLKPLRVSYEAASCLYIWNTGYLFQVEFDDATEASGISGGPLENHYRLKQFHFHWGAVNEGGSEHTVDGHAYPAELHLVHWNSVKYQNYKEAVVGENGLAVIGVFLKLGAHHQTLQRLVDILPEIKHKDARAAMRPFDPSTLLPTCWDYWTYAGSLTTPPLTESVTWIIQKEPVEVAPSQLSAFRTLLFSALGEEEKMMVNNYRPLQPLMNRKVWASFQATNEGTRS
UniProt P22748, 19-284 limits assumed: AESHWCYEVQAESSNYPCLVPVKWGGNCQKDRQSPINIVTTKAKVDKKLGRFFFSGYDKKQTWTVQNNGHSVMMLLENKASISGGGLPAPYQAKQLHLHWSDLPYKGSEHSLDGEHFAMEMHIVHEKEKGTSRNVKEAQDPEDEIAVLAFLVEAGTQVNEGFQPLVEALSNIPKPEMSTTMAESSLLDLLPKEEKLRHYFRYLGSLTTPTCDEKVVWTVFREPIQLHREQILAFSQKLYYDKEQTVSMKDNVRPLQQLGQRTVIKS
UniProt P00915, 2-261 limits assumed: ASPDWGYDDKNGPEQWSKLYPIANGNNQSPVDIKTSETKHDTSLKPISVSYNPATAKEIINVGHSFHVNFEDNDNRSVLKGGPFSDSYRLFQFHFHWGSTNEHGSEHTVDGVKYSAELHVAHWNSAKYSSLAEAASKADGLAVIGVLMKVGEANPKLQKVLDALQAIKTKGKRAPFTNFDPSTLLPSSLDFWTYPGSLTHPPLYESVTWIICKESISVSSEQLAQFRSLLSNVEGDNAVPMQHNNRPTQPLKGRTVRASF
UniProt O43570, 25-354 limits assumed: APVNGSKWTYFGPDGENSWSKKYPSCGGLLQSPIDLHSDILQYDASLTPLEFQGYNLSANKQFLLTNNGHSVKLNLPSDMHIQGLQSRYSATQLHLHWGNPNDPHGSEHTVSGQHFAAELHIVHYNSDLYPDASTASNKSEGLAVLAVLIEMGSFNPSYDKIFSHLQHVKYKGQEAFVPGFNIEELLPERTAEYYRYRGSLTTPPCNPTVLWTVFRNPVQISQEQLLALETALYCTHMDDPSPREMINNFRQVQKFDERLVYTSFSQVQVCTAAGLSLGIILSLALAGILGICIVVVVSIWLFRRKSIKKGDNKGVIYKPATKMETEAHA
UniProt Q8N1Q1: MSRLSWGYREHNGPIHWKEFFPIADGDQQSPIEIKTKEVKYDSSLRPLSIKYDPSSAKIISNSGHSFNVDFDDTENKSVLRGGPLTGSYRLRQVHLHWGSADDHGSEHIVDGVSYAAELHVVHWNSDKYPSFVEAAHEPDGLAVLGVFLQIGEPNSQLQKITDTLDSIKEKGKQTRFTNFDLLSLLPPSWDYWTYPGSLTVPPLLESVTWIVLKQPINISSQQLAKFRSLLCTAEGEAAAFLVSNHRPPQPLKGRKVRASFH
UniProt Q9ULX7, 16-337 limits assumed: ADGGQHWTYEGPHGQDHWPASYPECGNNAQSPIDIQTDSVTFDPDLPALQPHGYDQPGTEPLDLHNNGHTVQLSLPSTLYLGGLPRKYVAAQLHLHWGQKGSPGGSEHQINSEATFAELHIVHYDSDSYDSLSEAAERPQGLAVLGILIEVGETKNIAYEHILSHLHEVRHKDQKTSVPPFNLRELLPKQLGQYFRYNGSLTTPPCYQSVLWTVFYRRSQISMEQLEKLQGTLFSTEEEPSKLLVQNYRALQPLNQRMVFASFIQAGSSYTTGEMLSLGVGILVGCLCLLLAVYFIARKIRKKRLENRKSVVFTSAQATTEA

In BindingDB's records for 37678143:

Legend:
Carbonic anhydrase 7 = Carbonic anhydrase 7 (Homo sapiens, UniProt P43166); test: ASSAY_NAME: ChEMBL_2499733 DESCRIPTION: Inhibition of recombinant human CA-VII incubated for 15 mins by stop-flow method
Carbonic anhydrase 9 = Carbonic anhydrase 9 (Homo sapiens, UniProt Q16790); test: ASSAY_NAME: ChEMBL_2499734 DESCRIPTION: Inhibition of recombinant human CA-IX incubated for 15 mins by stop-flow method
[1] = target: Carbonic anhydrase 5A, mitochondrial (Homo sapiens, UniProt P35218); test: ASSAY_NAME: ChEMBL_2499732 DESCRIPTION: Inhibition of recombinant human CA-VA incubated for 15 mins by stop-flow method
Carbonic anhydrase 4 = Carbonic anhydrase 4 (Homo sapiens, UniProt P22748); test: ASSAY_NAME: ChEMBL_2499731 DESCRIPTION: Inhibition of recombinant human CA-IV incubated for 15 mins by stop-flow method
Carbonic anhydrase 1 = Carbonic anhydrase 1 (Homo sapiens, UniProt P00915); test: ASSAY_NAME: ChEMBL_2499729 DESCRIPTION: Inhibition of recombinant human CA-I incubated for 15 mins by stop-flow method
Carbonic anhydrase 2 = Carbonic anhydrase 2 (Homo sapiens, UniProt P00918); test: ASSAY_NAME: ChEMBL_2499730 DESCRIPTION: Inhibition of recombinant human CA-II incubated for 15 mins by stop-flow method
Carbonic anhydrase 12 = Carbonic anhydrase 12 (Homo sapiens, UniProt O43570); test: ASSAY_NAME: ChEMBL_2499735 DESCRIPTION: Inhibition of recombinant human CA-XII incubated for 15 mins by stop-flow method
Carbonic anhydrase 13 = Carbonic anhydrase 13 (Homo sapiens, UniProt Q8N1Q1); test: ASSAY_NAME: ChEMBL_2499736 DESCRIPTION: Inhibition of recombinant human CA-XIII incubated for 15 mins by stop-flow method
Carbonic anhydrase 14 = Carbonic anhydrase 14 (Homo sapiens, UniProt Q9ULX7); test: ASSAY_NAME: ChEMBL_2499737 DESCRIPTION: Inhibition of recombinant human CA-XIV incubated for 15 mins by stop-flow method

Structure (SMILES): N#CC1(Nc2ccc3ccccc3c2)CCN(CCc2ccc(S(N)(=O)=O)cc2)CC1
- Ki (Carbonic anhydrase 7): 8.9 nM

Structure (SMILES): NS(=O)(=O)c1ccc(CCN2CCC(Nc3ccc4ccccc4c3)CC2)cc1
- Ki (Carbonic anhydrase 9): 37 nM

Structure (SMILES): Cc1ccc(NC2CCN(CCc3ccc(S(N)(=O)=O)cc3)CC2)cc1
- Ki [1]: 97 nM

Structure (SMILES): NS(=O)(=O)c1ccc(C(=O)NCC2(Nc3ccccc3)CCN(CCc3ccccc3)CC2)cc1
- Ki (Carbonic anhydrase 4): 562 nM
- Ki (Carbonic anhydrase 1): 59 nM
- Ki (Carbonic anhydrase 2): 8.6 nM
- Ki (Carbonic anhydrase 12): 4.3 nM
- Ki (Carbonic anhydrase 9): 26 nM

Structure (SMILES): NS(=O)(=O)c1ccc(NC(=O)NCC2(Nc3ccccc3)CCN(CCc3ccccc3)CC2)cc1
- Ki (Carbonic anhydrase 13): 85 nM
- Ki (Carbonic anhydrase 14): 80 nM
